Measurements: ChEMBL document CHEMBL3639368, “Substituted benzimidazole-type piperidine compounds and uses thereof” (2015)
pKi: −log10 of the molar value.

What was measured:
[1] = target: Kappa-type opioid receptor (Homo sapiens, UniProt P41145); assay: Radioligand Binding Assay: Radioligand dose displacement assays used 0.4-0.8 nM [3H]-U69,593 (NEN; 40 Ci/mmole) with 10-20 μg membrane protein (recombinant kappa opioid receptor expressed in HEK 293 cells; in-house prep) in a final volume of 200 μL binding buffer (5% DMSO, 50 mM Trizma base, pH 7.4). Non-specific binding was determined in the presence of 10 μM unlabeled naloxone or U69,593. All re; conditions: sf9
[2] = target: Mu-type opioid receptor (Homo sapiens, UniProt P35372); assay: Radioligand Binding Assay: Radioligand binding assays were conducted using freshly thawed membranes expressing human mu-receptors (Perkin Elmer, Shelton, Conn.). Radioligand dose-displacement binding assays for human mu-opioid receptors used 0.2 nM[3H]-diprenorphine (NEN, Boston, Mass.), with 5-20 mg membrane protein/well in a final volume of 500 uL binding buffer (10 mM MgCl2, 1 mM EDTA, 5% DMSO,
[3] = target: Delta-type opioid receptor (Homo sapiens, UniProt P41143); assay: Radioligand Binding Assay: Radioligand dose-displacement assays used 0.2 nM [3H]-Naltrindole (NEN; 33.0 Ci/mmole) with 10-20 μg membrane protein (recombinant delta opioid receptor expressed in CHO-K1 cells; Perkin Elmer) in a final volume of 500 μL binding buffer (5 mM MgCl2, 5% DMSO, 50 mM Trizma base, pH 7.4). Non-specific binding was determined in the presence of 25 μM unlabeled naloxone. All r

## c1ccc2c(c1)nc(Cc1cnccn1)n2[C@H]1C[C@H]2CCC[C@@H](C1)N2[C@@H]1C[C@@H]2CCCC[C@@H](C2)C1
[1]
  pKi: 6.94

## OCc1nc2ccccc2n1C1C[C@H]2CCC[C@@H](C1)N2[C@H]1C[C@@H]2CCC[C@@H](C2)C1 (some centres not stated)
[1]
  pKi: 6.61
[2]
  pKi: 5.80

## O=C(O)CN1CCCC[C@H]1Cc1nc2ccccc2n1[C@H]1C[C@H]2CCC[C@@H](C1)N2[C@@H]1C[C@@H]2CCCC[C@@H](C2)C1
[1]
  pKi: 6.77
[2]
  pKi: 5.52

## CCOC(=N)/N=c1\[nH]c2ccccc2n1C1CCN(C2CCCCCCC2)CC1
[1]
  pKi: 7.23
[3]
  pKi: 5.79
[2]
  pKi: 6.29

## c1ccc2c(c1)nc(-c1cnc[nH]1)n2[C@H]1C[C@H]2CCC[C@@H](C1)N2[C@@H]1C[C@@H]2CCC[C@@H](C2)C1
[1]
  pKi: 7.05
[2]
  pKi: 6.28

## O=C(O)CN1CCC[C@H](c2nc3ccccc3n2[C@H]2C[C@H]3CCC[C@@H](C2)N3[C@H]2C[C@@H]3CCC[C@@H](C3)C2)C1
[1]
  pKi: 6.45

## NC(=O)CN1CCC[C@H]1c1nc2ccccc2n1[C@H]1C[C@H]2CCC[C@@H](C1)N2[C@@H]1C[C@@H]2CCCC[C@@H](C2)C1
[1]
  pKi: 6.91

## O=C(O)CCN1CCC[C@@H]1c1nc2ccccc2n1[C@H]1C[C@H]2CCC[C@@H](C1)N2[C@@H]1C[C@@H]2CCCC[C@@H](C2)C1
[1]
  pKi: 6.08
[2]
  pKi: 5.26

## Cn1cc(Cl)c(-c2nc3ccccc3n2[C@H]2C[C@H]3CCC[C@@H](C2)N3[C@@H]2C[C@@H]3CCC[C@@H](C3)C2)n1
[1]
  pKi: 7.10
[3]
  pKi: 5.38
[2]
  pKi: 6.02

## O=C(O)CN1CCC[C@H]1Cc1nc2ccccc2n1[C@H]1C[C@H]2CCC[C@@H](C1)N2[C@@H]1C[C@@H]2CCCC[C@@H](C2)C1
[2]
  pKi: 5.55

## Cc1nnc(Cc2nc3ccccc3n2[C@H]2C[C@H]3CCC[C@@H](C2)N3[C@@H]2C[C@@H]3CCCC[C@@H](C3)C2)[nH]1
[1]
  pKi: 6.89

## CCN(CC)C(=O)CN1CC[C@@H](Cc2nc3ccccc3n2[C@H]2C[C@H]3CCC[C@@H](C2)N3[C@@H]2C[C@@H]3CCCC[C@@H](C3)C2)C1
[1]
  pKi: 7.52
[2]
  pKi: 5.52

## c1ccc2c(c1)nc(C[C@@H]1COCCN1)n2[C@H]1C[C@H]2CCC[C@@H](C1)N2[C@@H]1C[C@@H]2CCCC[C@@H](C2)C1
[1]
  pKi: 7.30
[2]
  pKi: 5.78

## CS(=O)(=O)NCCN1CC[C@@H](Cc2nc3ccccc3n2[C@H]2C[C@H]3CCC[C@@H](C2)N3[C@@H]2C[C@@H]3CCCC[C@@H](C3)C2)C1
[2]
  pKi: 5.73

## O=C(O)CN1CCN(Cc2nc3ccccc3n2[C@H]2C[C@H]3CCC[C@@H](C2)N3[C@H]2C[C@@H]3CCC[C@@H](C3)C2)CC1
[1]
  pKi: 5.17
[3]
  pKi: 4.96

## O=C(O)CN1CCC[C@H](c2nc3ccccc3n2[C@H]2C[C@H]3CCC[C@@H](C2)N3[C@@H]2C[C@@H]3CCCC[C@@H](C3)C2)C1
[1]
  pKi: 6.15
[2]
  pKi: 5.13

## O=C(O)CN1CCC/C(=C2\N(CC(=O)O)c3ccccc3N2[C@H]2C[C@H]3CCC[C@@H](C2)N3[C@@H]2C[C@@H]3CCCC[C@@H](C3)C2)C1
[1]
  pKi: 7.38

## O=C(O)CCN1CCC[C@H]1Cc1nc2ccccc2n1[C@H]1C[C@H]2CCC[C@@H](C1)N2[C@@H]1C[C@@H]2CCCC[C@@H](C2)C1
[1]
  pKi: 6.35

## O=C(O)CNc1nc2ccccc2n1C1C[C@H]2CCC[C@@H](C1)N2C1CCCCCCCCC1 (some centres not stated)
[1]
  pKi: 6.58
[3]
  pKi: 4.87

## O=C(O)CN1CCCC[C@H]1c1nc2ccccc2n1[C@H]1C[C@H]2CCC[C@@H](C1)N2[C@@H]1C[C@@H]2CCCC[C@@H](C2)C1
[1]
  pKi: 6.97
[2]
  pKi: 5.33

## O=C(O)CO/N=C/c1nc2ccccc2n1[C@H]1C[C@H]2CCC[C@@H](C1)N2[C@H]1C[C@@H]2CCC[C@@H](C2)C1
[2]
  pKi: 5.82

## CONC(=N)/N=c1\[nH]c2ccccc2n1C1CCN(C2CCCCCCC2)CC1
[3]
  pKi: 5.25
[2]
  pKi: 5.61

## c1ccc2c(c1)nc(-c1cc[nH]n1)n2[C@H]1C[C@H]2CCC[C@@H](C1)N2[C@@H]1C[C@@H]2CCC[C@@H](C2)C1
[1]
  pKi: 7.29
[3]
  pKi: 5.21
[2]
  pKi: 6.28

## O=C(O)CCN1CCC(Cc2nc3ccccc3n2[C@H]2C[C@H]3CCC[C@@H](C2)N3[C@@H]2C[C@@H]3CCCC[C@@H](C3)C2)CC1
[1]
  pKi: 6.09

## O=C(O)CCN1CC[C@@H](Cc2nc3ccccc3n2[C@H]2C[C@H]3CCC[C@@H](C2)N3[C@@H]2C[C@@H]3CCCC[C@@H](C3)C2)C1
[1]
  pKi: 6.21
[2]
  pKi: 5.35

## O=C(O)CN1CCC[C@@H]1c1nc2ccccc2n1[C@H]1C[C@H]2CCC[C@@H](C1)N2[C@@H]1C[C@@H]2CCCC[C@@H](C2)C1
[3]
  pKi: 5.28
[2]
  pKi: 5.95

## c1ccc2c(c1)nc(C[C@H]1COCCN1)n2[C@H]1C[C@H]2CCC[C@@H](C1)N2[C@@H]1C[C@@H]2CCCC[C@@H](C2)C1
[1]
  pKi: 7.50
[2]
  pKi: 5.72

## NC(=O)/N=c1\[nH]c2ccccc2n1C1CCN(C2CCCCCCC2)CC1
[1]
  pKi: 7.47
[3]
  pKi: 4.99
[2]
  pKi: 6.47

## CS(=O)(=O)NCCN1CCC[C@H]1Cc1nc2ccccc2n1[C@H]1C[C@H]2CCC[C@@H](C1)N2[C@@H]1C[C@@H]2CCCC[C@@H](C2)C1
[1]
  pKi: 7.36
[2]
  pKi: 5.74

## O=C(O)CN1CCC[C@H]1c1nc2ccccc2n1[C@H]1C[C@H]2CCC[C@@H](C1)N2[C@@H]1C[C@@H]2CCCC[C@@H](C2)C1
[1]
  pKi: 6.82
[3]
  pKi: 4.79
[2]
  pKi: 5.45

## O=C(O)CN1CCCC[C@@H]1c1nc2ccccc2n1[C@H]1C[C@H]2CCC[C@@H](C1)N2[C@@H]1C[C@@H]2CCCC[C@@H](C2)C1
[1]
  pKi: 7.79
[2]
  pKi: 4.95
